Patent publication EP4563146A1 (IRBM S.P.A., priority 2023, dated 2025)

Experiments:
[1] = target: DEN1V NS2B-G4SG4NS3 serine protease (Dengue virus type 1, UniProt P17763); assay: DEN1V protease inhibition assay
[2] = target: DEN4V NS2B-G4SG4NS3 serine protease (Dengue virus type 4, UniProt P09866); assay: DEN4V protease inhibition assay
[3] = target: DEN2V NS2B-G4SG4-NS3 serine protease (Dengue virus type 2, UniProt Q91H74); assay: DEN2V protease inhibition assay
[4] = target: DEN3V NS2B-G4SG4NS3 serine protease (Dengue virus type 3, UniProt Q6YMS4); assay: DEN3V protease inhibition assay
[5] = read-out: Dengue 1 - NS3 protease
[6] = read-out: Dengue 4 - NS3 protease
[7] = read-out: Dengue 2 - NS3 protease
[8] = read-out: Dengue 3 - NS3 protease

| SMILES | IC50 [1] [nM] | IC50 [2] [nM] | IC50 [3] [nM] | IC50 [4] [nM] | IC50 [1, 5] [nM] | IC50 [2, 6] [nM] | IC50 [3, 7] [nM] | IC50 [4, 8] [nM] |
| --- | --- | --- | --- | --- | --- | --- | --- | --- |
| CN1CCCC(C[n+]2cc([N-]C(=O)Nc3cc(NC(=O)Cc4ccccc4)cc(C(F)(F)F)c3)on2)C1 (stereo not shown) [Example 117, (3-((1-Methylpiperidin-3-yl)methyl)-1,2,3-oxadiazol-3-ium-5-yl)((3-(2-phenylacetamido)-5-(trifluoromethyl)phenyl)carbamoyl)amide] | 1000 to 20000 | 1000 to 20000 | < 100 | 100 to 1000 |  |  |  |  |
| O=C([N-]c1c[n+](Cc2ccccn2)no1)Nc1cc(NC(=O)C(F)(F)CN2CCCC2)cc(C(F)(F)F)c1 [Example 76] |  |  |  |  | > 20000 | > 20000 | < 100 | 1000 to 20000 |
| O=C(Cc1ccccc1)Nc1cc(NC(=O)[N-]c2c[n+](Cc3ccc(CO)cn3)no2)cc(C(F)(F)F)c1 [Example 116, (3-((5-(Hydroxymethyl)pyridin-2-yl)methyl)-1,2,3-oxadiazol-3-ium-5-yl)((3-(2-phenylacetamido)-5-(trifluoromethyl)phenyl)carbamoyl)amide] | 1000 to 20000 | 100 to 1000 | < 100 | 100 to 1000 |  |  |  |  |
| CN(C)C[C@H]1CC[C@@H]([n+]2cc([N-]C(=O)Nc3cc(N4CCC(c5ccccc5)C4=O)cc(C(F)(F)F)c3)on2)CC1 (stereo partly drawn) [Example 138, (3-((1S,4S)-4-((Dimethylamino)methyl)-cyclohexyl)-1,2,3-oxadiazol-3-ium-5-yl)((3-(2-oxo-3-phenylpyrrolidin-1-yl)-5-(trifluoromethyl)-phenyl)carbamoyl)amide] | 1000 to 20000 | 1000 to 20000 | < 100 | 100 to 1000 |  |  |  |  |
| O=C([N-]c1c[n+](Cc2ccccn2)no1)Nc1cc(NC(=O)c2ccnn2-c2ccccc2)cc(C(F)(F)F)c1 [Example 34] |  |  |  |  | 1000 to 20000 | 1000 to 20000 | < 100 | 100 to 1000 |
| NC1C2COCC1CC([n+]1cc([N-]C(=O)Nc3cc(NC(=O)Cc4ccccc4)cc(C(F)(F)F)c3)on1)C2 (stereo not shown) [Example 112, (3-(9-Amino-3-oxabicyclo[3.3.1]nonan-7-yl)-1,2,3-oxadiazol-3-ium-5-yl)((3-(2-phenylacetamido)-5-(trifluoromethyl)phenyl)carbamoyl)amide] | 1000 to 20000 | 1000 to 20000 | < 100 | 100 to 1000 |  |  |  |  |
| NCc1cccc(C[n+]2cc([N-]C(=O)Nc3cc(NC(=O)Cc4ccccc4)cc(C(F)(F)F)c3)on2)c1 [Example 108, (3-(3-(Aminomethyl)benzyl)-1,2,3-oxadiazol-3-ium-5-yl)((3-(2-phenylacetamido)-5-(trifluoromethyl)phenyl)carbamoyl)amide] | 1000 to 20000 | 1000 to 20000 | < 100 | 100 to 1000 |  |  |  |  |
| O=C(Cc1ccc2nc[nH]c2c1)Nc1cc(NC(=O)[N-]c2c[n+](Cc3ccccn3)no2)cc(C(F)(F)F)c1 [Example 124, ((3-(2-(1H-Benzo[d]imidazol-6-yl)acetamido)-5-(trifluoromethyl)phenyl)carbamoyl)(3-(pyridin-2-ylmethyl)-1,2,3-oxadiazol-3-ium-5-yl)amide] | 1000 to 20000 | 1000 to 20000 | < 100 | 100 to 1000 |  |  |  |  |
| N[C@H]1C[C@H]([n+]2cc([N-]C(=O)Nc3cc(NC(=O)Cc4ccccc4)cc(C(F)(F)F)c3)on2)C1 [Example 26, (3-((1R,3R)-3-Aminocyclobutyl)-1,2,3-oxadiazol-3-ium-5-yl)((3-(2-phenylacetamido)-5-(trifluoromethyl)phenyl)carbamoyl)amide] | > 20000 | 1000 to 20000 | 100 to 1000 | 1000 to 20000 |  |  |  |  |
| N[C@H]1CC[C@H](C[n+]2cc([N-]C(=O)Nc3cc(N4CC[C@H](c5ccccc5)C4=O)cc(C(F)(F)F)c3)on2)CC1 [Example 143, (3-(((1R,4R)-4-Aminocyclohexyl)methyl)-1,2,3-oxadiazol-3-ium-5-yl)((3-((R)-2-oxo-3-phenylpyrrolidin-1-yl)-5-(trifluoromethyl)-phenyl)carbamoyl)amide] | 1000 to 20000 | 1000 to 20000 | < 100 | 100 to 1000 |  |  |  |  |
| O=C(Cc1ccccc1)Nc1cc(NC(=O)[N-]c2c[n+](Cc3ccc(CCO)cc3)no2)cc(C(F)(F)F)c1 [Example 111, (3-(4-(2-Hydroxyethyl)benzyl)-1,2,3-oxadiazol-3-ium-5-yl)((3-(2-phenylacetamido)-5-(trifluoromethyl)phenyl)carbamoyl)amide] | 1000 to 20000 | 100 to 1000 | < 100 | < 100 |  |  |  |  |
| NC(=O)c1ccc(C[n+]2cc([N-]C(=O)Nc3cc(NC(=O)Cc4ccccc4)cc(C(F)(F)F)c3)on2)cc1 [Example 104, (3-(4-Carbamoylbenzyl)-1,2,3-oxadiazol-3-ium-5-yl)((3-(2-phenylacetamido)-5-(trifluoromethyl)phenyl)carbamoyl)amide] | 1000 to 20000 | 100 to 1000 | < 100 | < 100 |  |  |  |  |
| COC(=O)Cc1ccc(C[n+]2cc([N-]C(=O)Nc3cc(NC(=O)Cc4ccccc4)cc(C(F)(F)F)c3)on2)cc1 [Example 109, (3-(4-(2-Methoxy-2-oxoethyl)benzyl)-1,2,3-oxadiazol-3-ium-5-yl)((3-(2-phenylacetamido)-5-(trifluoromethyl)phenyl)carbamoyl)amide] | 1000 to 20000 | 100 to 1000 | < 100 | < 100 |  |  |  |  |

Read-outs that look alike come from different tables or passages of the source.
